{
  "source": "patent US5532218A",
  "about": "“3'-aziridino-anthracycline derivatives” (Farmitalia Carlo Erba S.R.L., priority 1993, dated 1996)",
  "key": {"[1]": {"system": "LoVo (colon adenocarcinoma)", "conditions": "both cell lines", "description": "(§1) The citotoxic activity is reported as IC50, the concentration inhibiting 50% of colony formation, calculated on concentration response curves. Resistance index R.I. is the ratio between the IC50 on resistant cells and the IC50 on sensitive cells."}, "[2]": {"system": "LoVo/DX (colon adenocarcinoma resistant to doxorubicin)", "conditions": "both cell lines", "description": "as §1"}},
  "data": [
    {"substance": "3'-deamino-3'-[1-aziridinyl]-4'-O-methansulfonyl-14-nicotinate-doxorubicin [Compound 2a]", "values": [
      {"measurement": "cytotoxic activity against LoVo, in words", "setting": "[1]", "result": "high activity"},
      {"measurement": "cytotoxic activity against LoVo/DX, in words", "setting": "[2]", "result": "high activity"}
    ]}
  ]
}
